Laboratory results as given in patent US4665083A, “Iminothiazolidine derivatives” (priority 1984, dated 1987).

Experiments:
pentatetrazole spasm = conditions: mouse, in vivo, po
Procedure: (6) Inhibition of pentatetrazole spasm
The test is performed on mice according to a modified method of Banziger and Hane.

maximum electroshock = conditions: mouse, in vivo, po
Procedure: (7) Maximum inhibition of electroshock
The examination is carried out on mice weighing 20 to 25 g according to Swinyard. Electroshocks having the parameters of 50 Hz, 45 mA and 0.4 sec are employed by means of corneal electrodes. The complete inhibition of the tonic spasm of the lower limb extensor is taken as the criterium of the anticonvulsive action.

## CN1C(=O)OC(C)(C)C1=O [Trimethadion, reference compound]
Pentatetrazole spasm
  Therapeutical index (inhibition of pentatetrazole spasm): 4.3
Maximum electroshock
  Therapeutical index (inhibition of maximum electroshock): 5.3
